RAD52 anneal inh: inhibitors of human RAD52 DNA annealing; P43351; recombinant RAD52 DNA annealing, FRET fluorescence; inhibition, % at 18.7 µM; 360,000 tested, 0.46% active; AID 651710;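 active means every replicate showing at least 50% inhibition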
RAD54 inh: blocks human RAD54 Holliday junction branch migration; inhibition, % at 10.4 µM; FAM/BHQ fluorescence; 360,000 tested, 0.14% active; AID 602329;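 active means mean normalized replicate activity at least 40 and at least half of replicates scoring 40 or more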;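 further: inhibitors cause a drop in the FAM fluorescence signal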
Yeast UUG start: yeast start codon fidelity modulation; AID 602363; activity score, % at 18.7 µM; S. cerevisiae UUG-firefly luciferase reporter, luminescence/redox ratio; 0.13% of 350,000 active;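 active means replicate mean at a twofold rise or more, about +100% in these data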;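 further: firefly luciferase made from a UUG start codon reports start codon fidelity; reporter light over untreated wells divided by growth signal over untreated wells; some hits fall short of that in this replicate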
PglD DTNB: blocks C. jejuni PglD acetyltransferase activity | purified PglD enzyme, DTNB colorimetric CoA detection | inhibition, % at 12.5 µM | 360,000 tested, 0.098% active | AID 602405; in the data active means inhibition above about 16%, passing the limit was not always enough
CASP6 VEID inh: blocks human caspase-6 cleavage activity | P55212 | purified caspase-6, Z-VEID-R110 cleavage fluorescence | inhibition, % at 12.5 µM | 350,000 tested, 0.53% active;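 active means mean inhibition across replicates at least about 35%, with every replicate also reaching that limit, limit read from the data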
INS-1E GSIS act: GLuc luminescence reporter in INS-1E cells, primary screen for activators of glucose-dependent secretion of insulin; INS-1E GLuc reporter insulin secretion, 2-3 h; activation, % at 16.6 µM; 370,000 tested, 0.61% active;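 active means lowest replicate activation of at least 40%, so every replicate reaches that level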
Each line names hits and unclear results; the compound was inactive in the other large screens. This is a sample that favours compounds with a hit; in the whole collection about 1.5% have one here.

COc1ccc(CCC(=O)OCC(=O)Nc2ccc3[nH]c(=O)[nH]c3c2)cc1	INS-1E GSIS act 45 (no result: RAD54 inh, Yeast UUG start, PglD DTNB)
C[C@H](O)C#Cc1ccc2c(c1)O[C@H](CN(C)C(=O)CN(C)C)[C@@H](C)CN([C@H](C)CO)S2(=O)=O	none
O=c1c2ccccc2sn1-c1cc(S(=O)(=O)N2CCOCC2)ccc1N1CCOCC1	INS-1E GSIS act 208 (no result: RAD52 anneal inh, CASP6 VEID inh)
O=C(OCc1cn(-c2ccc(Cl)cc2)nn1)c1ccccc1	none (no result: RAD52 anneal inh, CASP6 VEID inh, INS-1E GSIS act)
O=c1[nH]c(CN2CCN(c3ccc(O)cc3)CC2)nc2scc(-c3ccc(Cl)cc3)c12	INS-1E GSIS act 53 (no result: RAD54 inh, Yeast UUG start, PglD DTNB)
CN(C)CC#Cc1ccc([C@H]2[C@H](CO)N3CCCCN(CC4CCOCC4)C[C@@H]23)cc1	RAD52 anneal inh 54
CN(C)CC#Cc1ccc([C@@H]2[C@@H](CO)N3CCCCN(CC4CCOCC4)C[C@@H]23)cc1	none (no result: CASP6 VEID inh)
CN(C)CC#Cc1ccc([C@H]2[C@@H](CO)N3CCCCN(CC4CC4)C[C@@H]23)cc1	RAD52 anneal inh 61
COc1ccc(CCN2C(=O)CC(Cc3ccccc3)C2=O)cc1OC (configuration not stated)	INS-1E GSIS act 70 (no result: RAD54 inh, Yeast UUG start, PglD DTNB)
N#Cc1ccc(-c2ccc3c(c2)[C@H]2[C@H](CCN2C(=O)c2ccc(F)cc2)[C@@H](CO)N3)cc1	none (no result: RAD52 anneal inh, CASP6 VEID inh)
COc1ccc(C#Cc2ccc([C@H]3[C@@H](CO)N4CCCCN(C)C[C@H]34)cc2)cc1	RAD52 anneal inh 80
CN1CCCCN2[C@H](CO)[C@H](c3ccc(C#Cc4ccccc4F)cc3)[C@@H]2C1	none
COc1ccc(C#Cc2ccc([C@@H]3[C@@H](CO)N4CCCCN(C)C[C@H]34)cc2)cc1	none
CN1CCCCN2[C@H](CO)[C@H](c3ccc(C#Cc4ccccc4F)cc3)[C@H]2C1	RAD52 anneal inh 69
COc1ccc(C#Cc2ccc([C@@H]3[C@H](CO)N4CCCCN(C)C[C@@H]34)cc2)cc1	RAD52 anneal inh 63
CCc1cc2c(=O)n(-c3ccccc3)cnc2s1	none (no result: RAD52 anneal inh, CASP6 VEID inh, INS-1E GSIS act)
Cc1cc(C)c(C)c(S(=O)(=O)N2CCN(CC(=O)Nc3ccc([N+](=O)[O-])cc3)CC2)c1C	INS-1E GSIS act 122 (no result: RAD52 anneal inh, RAD54 inh, Yeast UUG start, PglD DTNB, CASP6 VEID inh)
COc1ccccc1CNC(=O)CCNS(=O)(=O)c1ccc2[nH]c(=O)oc2c1	INS-1E GSIS act 53
CC1(C)Cc2c(c(-c3ccco3)nc3sc4c(NCCO)ncnc4c23)CO1	INS-1E GSIS act 88 (no result: RAD54 inh, Yeast UUG start, PglD DTNB)
CC1(C)Cc2c(c(N3CCOCC3)nc3sc4c(NCCN)ncnc4c23)CO1	INS-1E GSIS act 52 (no result: RAD54 inh, Yeast UUG start, PglD DTNB)
COCC(=O)N1C[C@@H](C)[C@@H](OC)CN(C)C(=O)c2ccc(NC(=O)C3CCC3)cc2OC[C@H]1C	none (no result: CASP6 VEID inh)
CCC(=O)Nc1cc2c(cc1C(=O)CC)OCCO2	none (no result: RAD52 anneal inh, CASP6 VEID inh, INS-1E GSIS act)
CC(=O)Nc1ccc(C=NNC(=O)CCCC(=O)NN=Cc2ccc(NC(C)=O)cc2)cc1	INS-1E GSIS act 41
CC(=O)Nc1ccc(/C=N/NC(=O)CC2CCCCC2)cc1	none
O=C(O)C1CCCCC1C(=O)Nc1nc(-c2ccc(Cl)s2)cs1 (configuration not stated)	CASP6 VEID inh 46 (no result: RAD54 inh, Yeast UUG start, PglD DTNB)
CCCC(=O)Nc1nc(-c2ccc(Cl)s2)cs1	none (no result: RAD54 inh, Yeast UUG start, PglD DTNB)
CCC1(CC)NC(=O)N(CC(=O)Nc2ccc(-n3cnnn3)cc2)C1=O	none
COc1ccc(/C=C(\CC(=O)O)c2nc3ccccc3s2)cc1O	none
CN(c1ccccc1)c1ccc(/C=C(\CCC(=O)O)c2nc3ccccc3s2)cc1[N+](=O)[O-]	CASP6 VEID inh 38 (no result: RAD54 inh, Yeast UUG start, PglD DTNB)
CCOc1cc(/C=C(\CC(=O)O)c2nc3ccccc3s2)ccc1OC	INS-1E GSIS act 51 (no result: RAD54 inh, Yeast UUG start, PglD DTNB)
Cc1ccc(/C=C(\CCC(=O)O)c2nc3ccccc3s2)cc1[N+](=O)[O-]	none
COc1ccc(CCNC(=O)CCC(=O)c2cccs2)cc1OC	INS-1E GSIS act 103
CCOc1ccc(CCNC(=O)CCC(=O)c2cccs2)cc1OCC	INS-1E GSIS act 95
COc1ccc(C(C)=O)cc1COC(=O)CCC(=O)c1cccs1	INS-1E GSIS act 44
Cc1ccsc1C1C=C(c2cccc(Br)c2)Nc2ncnn21 (configuration not stated)	none (no result: RAD52 anneal inh, CASP6 VEID inh, INS-1E GSIS act)
Cc1oncc1C(=O)NC1CCCCC1	none
CC1(C(=O)NCc2cccc3ccccc23)CCN1Cc1ccc(OC(F)(F)F)cc1 (configuration not stated)	INS-1E GSIS act 203 (no result: Yeast UUG start)
Cc1ccc(S(=O)(=O)N(C)C[C@H]2OCCCC[C@@H](C)Oc3ccc(NS(=O)(=O)c4ccc(F)cc4)cc3C(=O)N([C@H](C)CO)C[C@H]2C)cc1	none
CC1(C(=O)NCC2CCCCC2)CCN1C(=O)Cc1ccc(-c2ccccc2)cc1 (configuration not stated)	none
CC1(C(=O)NCC2CCCCC2)CCN1CCc1ccccc1 (configuration not stated)	INS-1E GSIS act 80
O=C(Nc1cccnc1)/C(N=Nc1cccnc1)=C(\O)c1ccccc1	INS-1E GSIS act 75 (no result: RAD52 anneal inh, RAD54 inh, Yeast UUG start, PglD DTNB, CASP6 VEID inh)
O=C(Nc1ccccc1)C(=O)Nc1cccnc1	none (no result: INS-1E GSIS act)
O=S(=O)(Nc1ccc(Cl)c(Cl)c1)N1CCOCC1	none
O=C(Nc1ccc(N2CCN(Cc3ccccc3F)CC2)cc1)c1ccc([N+](=O)[O-])o1	none (no result: INS-1E GSIS act)
COc1cc(C(=O)Nc2ccc3nc(N4CCN(C)CC4)cc(C)c3c2)cc(OC)c1OC	RAD52 anneal inh 56
Cc1cc(N2CCN(C)CC2)nc2ccc(NC(=O)c3ccc4c(c3)OCO4)cc12	none (no result: RAD52 anneal inh, CASP6 VEID inh)
CCn1c(CNC(=O)COc2ccc(C(C)C)cc2)nnc1SCC(=O)Nc1ccccc1F	CASP6 VEID inh 53
CCOC(=O)C(C)Oc1cccc2c(=O)n(CC(=O)NCc3ccccc3)ccc12 (configuration not stated)	none
CCOC(=O)C(C)Oc1cccc2c(=O)n(CC(=O)NCc3ccc(F)cc3)ccc12 (configuration not stated)	INS-1E GSIS act 42
COc1cc2c(cc1OC)C(Cc1ccc(O)cc1)NCC2 (configuration not stated)	INS-1E GSIS act 70
CCOc1ccc(CC2NCCc3cc(OCC)c(OCC)cc32)cc1OCC (configuration not stated)	none
COc1cc2c(cc1OC)C(C)N(Cc1ccc3c(c1)OCO3)CC2 (configuration not stated)	none
COc1cc2c(cc1OC)C(Cc1ccc(O)cc1)N(C)CC2 (configuration not stated)	INS-1E GSIS act 40
Cc1ccc(OCC(=O)N/N=C/c2cc([N+](=O)[O-])ccc2N2CCCCC2)cc1	none
CC(C)c1ccccc1OCC(O)CN1CCN(S(=O)(=O)c2ccc([N+](=O)[O-])cc2)CC1 (configuration not stated)	none
CCOC(=O)Cc1nn(Cc2ccc(Cl)cc2)c(=O)c2ccccc12	none
CCOC(=O)Cc1nn(Cc2ccccc2)c(=O)c2ccccc12	INS-1E GSIS act 89 (no result: RAD54 inh, Yeast UUG start, PglD DTNB)
CCOc1ccc(C(=O)Nn2cnnc2)cc1OCC	none (no result: RAD54 inh)
COCCNc1ncnc2c1ncn2[C@H]1CN(Cc2cc(OC)c(OC)c(OC)c2)C[C@@H](CO)O1	none (no result: Yeast UUG start, INS-1E GSIS act)
